Results taken from ChEMBL document CHEMBL1125045, “Hemicholinium-3 congeners as potential antagonists to organophosphate-induced toxicity” (1990).
Activity calls are given as the source filed them. No cut-off for these calls is given here.

Tests used:
Oryctolagus cuniculus [1] = test: Ability to inhibit neuromuscular transmission in rabbit was determined at a dose 0.16 mg/kg
Oryctolagus cuniculus [2] = test: Ability to inhibit neuromuscular transmission in rabbit was determined at a dose 1.8 mg/kg
Oryctolagus cuniculus [3] = test: Ability to inhibit neuromuscular transmission in rabbit was determined at a dose 2.08 mg/kg
Oryctolagus cuniculus [4] = test: Ability to inhibit neuromuscular transmission in rabbit was determined at a dose 5.6 mg/kg

With `CC1C[N+](C)(CC(=O)c2ccc(-c3ccc(C(=O)C[N+]4(C)CCOC(C)C4)cc3)cc2)CCO1` (centres undefined) the Activity (Oryctolagus cuniculus [1]) was “inactive”.

For `O=C(CN1CCCCC1)c1ccc(-c2ccc(C(=O)CN3CCCCC3)cc2)cc1`, the Activity (Oryctolagus cuniculus [2]) was “inactive”.

With `O=C(CN1CCOCC1)c1ccc(-c2ccc(C(=O)CN3CCOCC3)cc2)cc1` the Activity (Oryctolagus cuniculus [3]) was “inactive”.

With `O=C(CN1CCCC1)c1ccc(-c2ccc(C(=O)CN3CCCC3)cc2)cc1` the Activity (Oryctolagus cuniculus [4]) was “inactive”.
